Experimental findings from ChEMBL document CHEMBL4806967, “Heterocyclic kinase inhibitors and uses thereof” (2020) are described below.

Molecules are shown by their SMILES.

As usually defined, the Vdss is the apparent volume that relates the amount in the body to the concentration in plasma or blood. Lower therefore signals little distribution into tissue.

The data set in a line: Volume of distribution at steady state in CD-1 mouse at 1 mg/kg, iv. The data set is classed as ADME, organism-based. The note with it: in vivo.

In turn, `Cc1nc(Nc2ncc(C(=O)Nc3c(C)csc3Cl)s2)cc(N2CCN(CCO)CC2)n1` came in with a Vdss of 5.4 L/kg.
